This is a selection; strong and weak results do not stand in their true shares. The source made the active and inactive calls.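 The calls were made as follows: active = mean replicate inhibition of at least 30% and at least 1% of replicates passing that level; inconclusive = only one of the two criteria is met; inactive = neither criterion is met.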

The assay relates to Voltage-dependent L-type calcium channel subunit alpha-1D (CaV1.3) ICDI/IQ interaction. The assay is described as follows: Primary screen for inhibitors of IQ motif and Ca2+-dependent inactivation inhibitor domain binding in CACNA1D, Förster resonance energy transfer in living cells, single-concentration test (AID 743397).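 Also: 0% = median of the neutral control wells.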 The conditions noted are these: HEK cells, CFP/YFP FRET ICDI-IQ, plate reader, 10 min; at 12.3 µM; stronger effect = higher value; percent FRET-ratio fall versus neutral wells.
With `Cc1ccccc1NC1(C#N)CCN(Cc2ccccc2)CC1`, the inhibition (commonly the drop in the measured response relative to a control, in per cent) was inactive: -8.78%. The same measure for `COc1ccc(C(c2nnnn2C2CCCCC2)N2CCC(n3c(=O)[nH]c4ccccc43)CC2)cc1` (configuration not stated): inactive: -9.08%; for `CCN1CCC(Nc2cccc(F)c2)CC1`: inactive: -5.12%. With `CC(C)(C)n1nnnc1C(c1ccnc2ccccc12)N1CCC(n2c(=O)[nH]c3ccccc32)CC1` (configuration not stated) the figure was inactive: -5.41%; with `O=C(NCC1(N2CCCCC2)CCCCC1)c1ccco1`, inactive: -1.58%; with `CN(C)c1ccc(C(=O)NCC2(N3CCCCC3)CCCCC2)cc1`, inactive: 4.76%.

Regarding `Cn1c(=O)[nH]cc(N(CCCl)CCCl)c1=O`, the inhibition is inactive: -9.15%.

Turning to `COc1cccc(C(c2nnnn2C2CCCCC2)N2CCC(n3c(=O)[nH]c4ccccc43)CC2)c1OC` (configuration not stated), the inhibition is inactive: -3.24%.

As for `CC(=O)N(c1ccccc1)C1CCNCC1`, the inhibition was inactive: -2.61%. For the compound `CCC(c1nnnn1C1CCCCC1)N1CCC(n2c(=O)[nH]c3ccccc32)CC1` (configuration not stated), the inhibition was inactive: -4.84%.

With `COc1cc(OC)cc(C(=O)NCC2(N3CCCCC3)CCCCC2)c1`, the inhibition is inactive: -2.48%. The same measure for `O=c1[nH]c2ccccc2n1C1CCN(C(c2ccnc3ccccc23)c2nnnn2C2CCCCC2)CC1` (configuration not stated): inactive: -5.93%; for `Cc1ccc(C(=O)NCC2(N3CCCCC3)CCCCC2)o1`: inactive: -5.77%. For `Fc1ccccc1NC1CCN(Cc2ccccc2)CC1`, the inhibition is inactive: -6.85%. With `Cc1ccc(NC2(C#N)CCN(Cc3ccccc3)CC2)cc1` the figure was inactive: -9.21%; with `COc1cccc(C(=O)N(c2cc(C)cc(C)c2)C2CCN(C(=O)OC(C)(C)C)CC2)c1`, inactive: -17.8%; with `COc1cc(OC)cc(C(=O)NCC2(N3CCOCC3)CCCCC2)c1`, inactive: -4.35%. The same measure for `CN1CCC(Nc2ccc(Cl)cc2)CC1`: inactive: -1.93%.

On to `CCOc1ncccc1C(=O)NCC1(N2CCOCC2)CCCCC1`, for which the inhibition was inactive: -3.58%. The same measure for `CN1CCC(Nc2ccc(F)c(Cl)c2)CC1`: inactive: 9.25%; for `CC(C)(C)OC(=O)N1CCC(Nc2ccccc2)CC1`: inactive: 6.27%; for `NN(c1ccccc1)C1CCN(CCc2ccccc2)CC1`: inactive: -6.38%.

For `O=C(O)C1(Nc2ccccc2)CCN(Cc2ccccc2)CC1`, the inhibition is inactive: -19.5%. With `O=c1[nH]c2ccccc2n1C1CCN(C(c2cc3ccccc3o2)c2nnnn2C2CCCC2)CC1` (configuration not stated) the figure was inactive: -6.47%; with `CCCOc1ccc(C(=O)NCC2(N(C)C)CCCCC2)cc1`, inactive: -3.76%; with `CCOC(=O)N1CCC(Nc2ccc(C)cc2)CC1`, inactive: 11.1%. Consider `COc1cccc(C(c2nnnn2C(C)(C)C)N2CCC(n3c(=O)[nH]c4ccccc43)CC2)c1OC` (configuration not stated), for which the inhibition was inactive: -4.9%.

For the origin of these results see PubChem BioAssay AID743397 (Broad Institute, 2014).
